System: ABCB1 (Homo sapiens)
Experiment: Inhibition of ABCB1 in human A2780adr cells assessed as increase in accumulation of calcein AM at 10 uM preincubated for 30 mins followed by calcein AM addition measured every 60 secs for 60 mins by fluorescence assay relative to control
Details: probe calcein AM

Row | inhibition at 1 h, 10 µM [%] | SMILES
1 | < 25 | COc1cccc(-c2nc(Nc3cccc(F)c3)c3cccnc3n2)c1
2 | < 25 | N#Cc1cccc(Nc2nc(-c3ccccc3)nc3ncccc23)c1

From ChEMBL document CHEMBL4043291, “New Inhibitors of Breast Cancer Resistance Protein (ABCG2) Containing a 2,4-Disubstituted Pyridopyrimidine Scaffold” (J Med Chem, 2018)
